Source: US20250177399A1, “COMBINATION THERAPIES” (MIRATI THERAPEUTICS, INC., priority 2021, published 2025)
Where two headings read alike, the source gives them in different places.

Assays:
H2122 tumors [1] = test: H2122 tumor model, Compound 478 and RO5126766 alone and in combination; assay type: in vivo, nude/nude mice; conditions: Study Day 21; Compound 478 100 mg/kg p.o daily, RO5126766 0.3 mg/kg p.o Q2D
H2122 tumors [2] = conditions: p.o. daily, Compound 478 100 mg/kg, trametinib 1 mg/kg
Protocol: Immunocompromised nude/nude mice were inoculated in the right hind flank with cells or patient derived tumor samples harboring a KRas G12C mutation. When tumor volumes reach between 200-400 mm^3 in size, the mice were divided into four groups of 5-12 mice each. The first group was administered vehicle only. […] The fourth group was orally administered the single agent dose of the KRas G12C inhibitor in combination with the single agent dose of the MEK inhibitor at the matched schedule. […] Tumor volumes were measured using a caliper every two-three days and tumor volumes are calculated by the formula: […].
For example, twenty nude/nude mice were inoculated in the right hind limb with 5×10^6 H2122 cells.

C=C(F)C(=O)N1CCN(c2nc(OC[C@@H]3CCCN3C)nc3c2CCN(c2cccc4cccc(Cl)c24)C3)C[C@@H]1CC#N [Compound 478]
Average Tumor Volumes of H2122 Tumor Bearing Mice (H2122 tumors [1]): 343.9594 mm^3
Average Tumor Volumes of H2122 Tumor Bearing Mice (H2122 tumors [2]; Study Day 3): 282 mm^3
Average Tumor Volumes of H2122 Tumor Bearing Mice (H2122 tumors [2]; Study Day 15): 252 mm^3
Average Tumor Volumes of H2122 Tumor Bearing Mice (H2122 tumors [2]; Study Day 28): 276 mm^3
